From patent publication US9555013B2, “Modulation of fibroblast activity” (The University of Leicester, priority 2008, dated 2017)

Tested on: human neutrophils
Test: Secretion of VEGF from neutrophils (ELISA)
Format: cell-based
Details: FIG. 15; after 48 hours; vs control
Method: Human dermal fibroblasts (FIGS. 9 and 15) or human neutrophils (VEGF only) (FIG. 15) were seeded into 6-well plates and grown to 60% confluence in FM. […] The supernatants were prepared and assayed using ELISA kits for TGF-β1, TGF-β2, 15 TGF-β3 and VEGF (R & D systems) following the Manufacturer's instructions.

COc1ccc(CC(C)NCC(O)c2ccc(O)c(NC=O)c2)cc1 (stereo not shown) [formotorol]
amount of VEGF secreted from human neutrophils: decrease
